“And” between values parts separate entries of the source, which are not always exact repeats. Identical values can stand only once. “Also recorded” adds a separate entry of the source.
Tests used:
[1] = Thermodynamic stability of crystalline forms of KAR5585; format: physicochemical; conditions: particularly at temperatures of less than 95° C.
[2] = Part 2 (MAD): plasma pharmacokinetics after BID oral KAR5585 for 14 days (incl. accumulation ratios and dose proportionality); conditions: for AUC0-24: Geo. Mean
[3] = Study KAR5585-101 Part 1 (SAD): plasma pharmacokinetics after a single oral dose of KAR5585, fasting and fed (incl. dose proportionality and food effect); conditions: for AUC(0-t): human, po
[4] = tested on: urine 5-HIAA (a PD marker of 5-HT synthesis); test: Part 2 (MAD) biomarker: urine 5-HIAA/24 hours (measured, adjusted, estimated, per gram creatinine); format: in vivo, human; conditions: exception: relative change on Day 14, 100 mg fasting group
Description: (§1) Biomarkers were to be evaluated in Part 2 by measuring concentrations of serotonin (5-hydroxytryptamine [5-HT]) in serum and 5-hydroxyindoleacetic acid (5-HIAA) in plasma and urine. As well, the relationship of biomarkers to PK parameters was to be evaluated.
(§2) The biomarker analysis was to be based on the Biomarker Population (all subjects with evaluable biomarker measurements at baseline [Day 1 predose] and at least one after dosing [Day 7 or Day 14]).
(§3) Biomarker data were to be collected only in Part 2. The following biomarkers were to be analyzed: • Serum 5-HT • Plasma 5-HIAA • Urine 5-HIAA/24 hours (as measured, adjusted, estimated, and per gram creatinine)
(§4) Summary statistics (mean, standard deviation [SD], median, minimum [Min], and maximum [Max]) were to be tabulated for each biomarker, by Cohort, with absolute and relative (%) changes from Day 1 predose. […]
The biomarker portion of the study was conducted in Part 2 MAD using the Biomarker Population. The biomarkers evaluated were serum 5-HT and plasma 5-HIAA, as well as urine 5-HIAA/24 hours (as measured, adjusted, estimated, and per gram creatinine). Urinary 5-HIAA was determined by a validated (21 C.F.R. 58, GLP-compliant) method using liquid chromatographic separation and tandem mass spectrometry detection. […]

[5] = tested on: serum 5-HT; test: Part 2 (MAD) biomarker: serum 5-HT change from Day 1 predose; format: in vivo, human
Description: as §1, §2, §3, §4
The biomarker portion of the study was conducted in Part 2 MAD using the Biomarker Population. The biomarkers evaluated were serum 5-HT and plasma 5-HIAA, as well as urine 5-HIAA/24 hours (as measured, adjusted, estimated, and per gram creatinine). Urinary 5-HIAA was determined by a validated (21 C.F.R. 58, GLP-compliant) method using liquid chromatographic separation and tandem mass spectrometry detection.

[6] = clinical; conditions: human, in vivo, 400 mg/dose
[7] = 100 mg (Cohort 2) to 400 mg (Cohort 4), 4-fold increase in dose, fed
[8] = 100 mg to 700 mg dose (7-fold increase in dose), fasting
[9] = 400 mg KAR5585, Cohort 3B (test) vs 3A (reference)
[10] = 400 mg KAR5585 single dose, Cohorts 3B vs 3A
[11] = 700 mg to 2000 mg (2.86-fold increase in dose), fasting

With `CCOC(=O)[C@@H]1CC2(CCN(c3cc(O[C@H](c4ccc(Cl)cc4-c4ccccc4)C(F)(F)F)nc(N)n3)CC2)CN1` [Form 3, (S)-ethyl 8-(2-amino-6-((R)-1-(5-chloro-[1,1′-biphenyl]-2-yl)-2,2,2-trifluoroethoxy)pyrimidin-4-yl)-2,8-diazaspiro[4.5]decane-3-carboxylate] the “thermodynamic stability relative to Form 1” value [1] was “substantially greater thermodynamic stability compared to Form 1”.

With `CCOC(=O)[C@@H]1CC2(CCN(c3cc(O[C@H](c4ccc(Cl)cc4-c4ccccc4)C(F)(F)F)nc(N)n3)CC2)CN1` [KAR5585, (S)-ethyl 8-(2-amino-6-((R)-1-(5-chloro-[1,1′-biphenyl]-2-yl)-2,2,2-trifluoroethoxy)pyrimidin-4-yl)-2,8-diazaspiro[4.5]decane-3-carboxylate] the “fold increase in mean AUC0-12, Day 1” value [2, 7] was 5.1 fold, the “fold increase in mean AUC0-12, Day 14” value [2, 7] was 3.1 fold and the “fold increase in mean AUC0-24, Day 1” value [2, 7] was 3.6 fold. The “fold increase in mean AUC0-24, Day 14” value [2, 7] was 3.6 fold and 3.63 fold, the “fold increase in mean Cmax, Day 1” value [2, 7] was 4.4 fold and the “fold increase in mean Cmax, Day 14” value [2, 7] was roughly 3.0 fold. For the same compound, the “RAUC0-12 (accumulation ratio for AUC0-12), range Day 7/Day 1 and Day 14/Day 1” value ([2]; 100 mg KAR5585 BID) was 2.75-3.32, the “RAUC0-12 (accumulation ratio for AUC0-12), range Day 7/Day 1 and Day 14/Day 1” value ([2]; 200 mg KAR5585 BID) was 0.76-0.93 and the “RAUC0-12 (accumulation ratio for AUC0-12), range Day 7/Day 1 and Day 14/Day 1” value ([2]; 400 mg KAR5585 BID) was 1.6-2.01. The AUC0-24 ([2]; 400 mg/dose Fasted Cohort 4, Day 1 PM) was 760 ng·h/mL, the AUC0-24 ([2]; 400 mg/dose Fasted Cohort 4, Day 7 PM) was 870 ng·h/mL and the “fold increase in mean AUC0-24” value [3, 8] was 8.7 fold. The “fold increase in mean AUC0-inf” value [3, 8] was 8.8 fold, the “AUC0-inf, Geometric LS Mean Ratio (fed/fasting)” value [3, 9] was 3.14 and the “AUC0-tau, Geometric LS Mean Ratio (fed/fasting)” value [3, 9] was 4.84. For the same compound, the “exposure as assessed by AUC0-tau and AUC0-inf, fed relative to fasting” value ([3]; 400 mg KAR5585 single dose) was 3.1-4.8 fold, the “fold increase in Cmax, fed vs fasting” value [3, 10] was 3.2 fold and the “peak mean concentration under fed relative to fasting conditions, % higher” value [3, 10] was “approximately 320%”. The “fold increase in AUC0-24” value [3, 11] was 1.86 fold, the “fold increase in AUC0-inf” value [3, 11] was 1.78 fold and the AUC(0-t) ([3]; in vivo, 2000 mg, Plasma AUC0-96, KAR5585 in plasma, 2000 mg KAR5585 single oral dose, mean) was 779 ng·h/mL. For the same compound, the AUC(0-t) ([3]; plasma, 100 mg, AUC0-12, 100 mg KAR5585 single oral, fasted, Cohort 1, Geo. Mean) was 46.2 ng·h/mL, the AUC(0-t) ([3]; plasma, 100 mg, AUC0-12, 100 mg KAR5585 single oral, fasted, Cohort 1, Mean) was 48.1 ng·h/mL and the AUC(0-t) ([3]; plasma, 100 mg, AUC0-24, 100 mg KAR5585 single oral, fasted, Cohort 1, Geo. Mean) was 47.5 ng·h/mL. The AUC(0-t) ([3]; plasma, 100 mg, AUC0-24, 100 mg KAR5585 single oral, fasted, Cohort 1, Mean) was 49.6 ng·h/mL, the AUC(0-t) ([3]; plasma, 100 mg, Plasma AUC0-96, KAR5585 in plasma, 100 mg KAR5585 single oral dose, mean) was 49.7 ng·h/mL and the AUC(0-t) ([3]; plasma, 200 mg, AUC0-12, 200 mg KAR5585 single oral, fasted, Cohort 2, Geo. Mean) was 83.3 ng·h/mL. The AUC(0-t) ([3]; plasma, 200 mg, AUC0-12, 200 mg KAR5585 single oral, fasted, Cohort 2, Mean) was 85.8 ng·h/mL, the AUC(0-t) ([3]; plasma, 200 mg, AUC0-24, 200 mg KAR5585 single oral, fasted, Cohort 2, Geo. Mean) was 93.4 ng·h/mL and the AUC(0-t) ([3]; plasma, 200 mg, AUC0-24, 200 mg KAR5585 single oral, fasted, Cohort 2, Mean) was 97.1 ng·h/mL. The AUC(0-t) ([3]; plasma, 200 mg, Plasma AUC0-96, KAR5585 in plasma, 200 mg KAR5585 single oral dose, mean) was 100 ng·h/mL, the AUC(0-t) ([3]; plasma, 400 mg, AUC0-12, 400 mg KAR5585 single oral, fasted, Cohort 3A, Geo. Mean) was 231 ng·h/mL and the AUC(0-t) ([3]; plasma, 400 mg, AUC0-12, 400 mg KAR5585 single oral, fasted, Cohort 3A, Mean) was 246 ng·h/mL. It also gave an AUC(0-t) ([3]; plasma, 400 mg, AUC0-12, 400 mg KAR5585 single oral, fed, Cohort 3B, Geo. Mean) of 756 ng·h/mL, an AUC(0-t) ([3]; plasma, 400 mg, AUC0-12, 400 mg KAR5585 single oral, fed, Cohort 3B, Mean) of 761 ng·h/mL and an AUC(0-t) ([3]; plasma, 400 mg, AUC0-24, 400 mg KAR5585 single oral, fasted, Cohort 3A, Geo. Mean) of 283 ng·h/mL. For the same compound, the AUC(0-t) ([3]; plasma, 400 mg, AUC0-24, 400 mg KAR5585 single oral, fasted, Cohort 3A, Mean) was 297 ng·h/mL, the AUC(0-t) ([3]; plasma, 400 mg, AUC0-24, 400 mg KAR5585 single oral, fed, Cohort 3B, Geo. Mean) was 876 ng·h/mL and the AUC(0-t) ([3]; plasma, 400 mg, AUC0-24, 400 mg KAR5585 single oral, fed, Cohort 3B, Mean) was 885 ng·h/mL. It also gave an AUC(0-t) ([3]; plasma, 400 mg, Plasma AUC0-96, KAR5585 in plasma, 400 mg (Fasted) KAR5585 single oral dose, mean) of 303 ng·h/mL, an AUC(0-t) ([3]; plasma, 400 mg, Plasma AUC0-96, KAR5585 in plasma, 400 mg (Fed) KAR5585 single oral dose, mean) of 917 ng·h/mL and an AUC(0-t) ([3]; plasma, 700 mg, AUC0-12, 700 mg KAR5585 single oral, fasted, Cohort 4, Geo. Mean) of 372 ng·h/mL. For the same compound, the AUC(0-t) ([3]; plasma, 700 mg, AUC0-12, 700 mg KAR5585 single oral, fasted, Cohort 4, Mean) was 392 ng·h/mL, the AUC(0-t) ([3]; plasma, 700 mg, AUC0-24, 700 mg KAR5585 single oral, fasted, Cohort 4, Geo. Mean) was 409 ng·h/mL and the AUC(0-t) ([3]; plasma, 700 mg, AUC0-24, 700 mg KAR5585 single oral, fasted, Cohort 4, Mean) was 432 ng·h/mL. The AUC(0-t) ([3]; plasma, 700 mg, Plasma AUC0-96, KAR5585 in plasma, 700 mg KAR5585 single oral dose, mean) was 436 ng·h/mL, the AUC(0-t) ([3]; plasma, 1200 mg, AUC0-12, 1200 mg KAR5585 single oral, fasted, Cohort 5, Geo. Mean) was 356 ng·h/mL and the AUC(0-t) ([3]; plasma, 1200 mg, AUC0-12, 1200 mg KAR5585 single oral, fasted, Cohort 5, Mean) was 402 ng·h/mL. The AUC(0-t) ([3]; plasma, 1200 mg, AUC0-24, 1200 mg KAR5585 single oral, fasted, Cohort 5, Geo. Mean) was 400 ng·h/mL, the AUC(0-t) ([3]; plasma, 1200 mg, AUC0-24, 1200 mg KAR5585 single oral, fasted, Cohort 5, Mean) was 453 ng·h/mL and the AUC(0-t) ([3]; plasma, 1200 mg, Plasma AUC0-96, KAR5585 in plasma, 1200 mg KAR5585 single oral dose, mean) was 463 ng·h/mL. The AUC(0-t) ([3]; plasma, 2000 mg, AUC0-12, 2000 mg KAR5585 single oral, fasted, Cohort 6, Geo. Mean) was 558 ng·h/mL, the AUC(0-t) ([3]; plasma, 2000 mg, AUC0-12, 2000 mg KAR5585 single oral, fasted, Cohort 6, Mean) was 624 ng·h/mL and the AUC(0-t) ([3]; plasma, 2000 mg, AUC0-24, 2000 mg KAR5585 single oral, fasted, Cohort 6, Geo. Mean) was 696 ng·h/mL. The “difference of absolute and relative changes from Day 1 in measured urine 5-HIAA vs placebo, significance” value ([4]; Days 7 and 14) was “statistically significant in favor of KAR5585 in all dose groups except one”, the “mean differences vs placebo of absolute and relative changes from Day 1 to Day 14 in urine 5-HIAA/24 hours, significance” value [4] was “statistically significant in favor of KAR5585 in all dose groups except one” and the “mean difference vs placebo of absolute and relative changes from Day 1 to Day 14 in serum 5-HT concentration, significance” value [5] was “statistically significant in favor of KAR5585 compared to placebo for the 400 mg fed and all KAR5585 doses pooled; also recorded: statistically significant for the highest dose group (400 mg fed) and for all KAR5585 doses pooled”. It also gave an AUC(0-t) [6] of 808 ng·h/mL.
